Results as given in US20040072754A1, “Amyloid precursor protein and APP-deprived peptides inhibit tumor growth and metastasis” (priority 2000, published 2004).

Columns and labels:
[1] = tested on: D122 tumor cells (Lewis lung carcinoma); experiment: Lewis lung carcinoma (D122) i.v. lung metastasis model with i.p. injected Aβ peptides; format: in vivo, C57/BL mice; settings: for reduction of the number of metastases in the lungs: 20 μg/mouse/injection (Aβ96-110: 10 μg), 7 times during two weeks before and 7 times after D122 i.v. injection, examined after 21 days
[2] = tested on: hippocampal cell cultures; settings: cited from earlier work

Substance: Asp-Ala-Glu-Phe-Arg-His-Asp-Ser-Gly-Tyr-Glu-Val-His-His-Gln-Lys (DAEFRHDSGYEVHHQK; listed as Homo sapiens) [Aβ1-16]
- reduction of the number of metastases in the lungs [1]: 81%
- effect on Lewis lung carcinoma lung metastasis (in words) ([1]; C57/BL mice, i.p. peptide): most effective in inhibiting lung metastasis
- toxicity to neuronal cells [2]: non-toxic

Substance: Tyr-Glu-Val-His-His-Gln-Lys-Leu-Val-Phe-Phe (YEVHHQKLVFF; listed as Homo sapiens) [Aβ10-20]
- reduction of the number of metastases in the lungs [1]: 17%
